The results in this text go back to patent publication US6291496A, “Treating cancers associated with overexpression of class I family of receptor tyrosine kinases” (priority 1999, dated 2001).

What all share (assay type): in vivo, human
In assay [1] the test system is HER-2/neu positive colon cancer. The assay is described as follows: Example V: after resection of colon cancer. The settings on record: patient, oral 5 mg/kg twice daily for five years after resection.
For assay [2], the system named is non-small cell lung carcinoma where EGFR is overexpressed. Description: Example VI: non-small cell lung carcinoma metastasized to liver. The settings on record: patient, oral 5 mg/kg twice daily. The protocol:
After one month, PPARγ ligand administration is continued in combination with infusion of cisplatin every four weeks at 60 mg/m^2 for 12 more weeks.

Assay [3] deals with EGFR positive breast cancer. Description: Example IX: adjuvant therapy after mastectomy. The settings on record: patient, oral 5 mg/kg twice daily for five years after mastectomy.
Assay [4] has as its system HER-2/neu positive breast cancer metastasized to lung and liver. Description: Example III: breast cancer metastasized to lung and liver. Particulars: patient, oral 5 mg/kg twice daily. The protocol:
After three months, the PPARγ ligand administration is continued in combination regimen with Taxol® at a dose of 175 mg/m^2 administered intravenously every three weeks.

The subject of assay [5] is Stage IV EGFR positive breast cancer tumors. Description: Example VIII: breast cancer with Stage IV EGFR positive tumors. Particulars: oral 5 mg/kg twice daily in combination with CETUXIMAB and Taxol.
For assay [6], the system named is HER-2/neu positive breast cancer metastasized to bone. Description: Example IV: breast cancer metastasized to bone. Particulars: patient after failure of prior chemotherapy, oral 5 mg/kg twice daily plus HERCEPTIN
The protocol: After 90 days, oral cyclophosphamide at a dose of 3 mg/kg/day and doxorubicin administered intravenously weekly at a dose of 20 mg/m^2, are added to the drug regimen.

Assay [7] relates to head and neck carcinoma where EGFR is overexpressed. The assay is described as follows: Example VII: head and neck carcinoma. Particulars: after the 12 weeks of CETUXIMAB and cisplatin, oral 5 mg/kg twice daily for 12 weeks. As to the method:
Concurrently cisplatin is infused every four weeks at 60 mg/m^2.

As to `Cc1c(C)c2c(c(C)c1O)CCC(C)(COc1ccc(CC3SC(=O)NC3=O)cc1)O2` (stereo not drawn) [troglitazone], the “recurrence of colon cancer” value in assay [1] is recorded as “Recurrence of colon cancer does not occur”. Also, the tumor burden result in assay [2] is listed as “reduced tumor burden”; in assay [4], “reduced tumor burden”; in assay [5], “reduced tumor burden”; in assay [6] it was “reduced tumor burden”; in assay [7], “further reduced tumor burden”. The “recurrence of breast cancer” value in assay [3] was “Recurrence of breast cancer dose not occur”.

With `COC(=O)c1ccccc1N[C@@H](Cc1ccc(OCCc2nc(-c3ccccc3)oc2C)cc1)C(=O)O` [GW7845, (S)-2-(1-carboxy-2-{4-[2-(5-methyl-2-phenyloxazol-4-yl)ethoxy]phenyl}ethylamino)benzoic acid methyl ester], the “recurrence of colon cancer” value in assay [1] is “Recurrence of colon cancer does not occur”. The “recurrence of breast cancer” value in assay [3] is on record as “Recurrence of breast cancer dose not occur”. Moreover, the tumor burden result in assay [4] and in assay [5] was “reduced tumor burden” in each case.

On to `CCc1ccc(CCOc2ccc(CC3SC(=O)NC3=O)cc2)nc1` (stereo not drawn) [pioglitazone], for which the “recurrence of colon cancer” value in assay [1] is listed as “Recurrence of colon cancer does not occur”. Besides, the tumor burden entry in assay [2] is “reduced tumor burden”; in assay [4], “reduced tumor burden”; in assay [5], “reduced tumor burden”; in assay [6], “reduced tumor burden”; in assay [7], “further reduced tumor burden”. Also, the “recurrence of breast cancer” value in assay [3] is “Recurrence of breast cancer dose not occur”.
